The values below come from US11369598B2, “Treatment of T-cell mediated diseases” (Ampio Pharmaceuticals, Inc., priority 2003, dated 2022).

Data set [1] in a line: Crossing of the blood-brain barrier (preliminary data). From the text:
Thus, DA-DKP and other diketopiperazines of the invention should be useful for treating nervous system disorders, such as multiple sclerosis.

Data set [2] in a line: Preliminary pharmacokinetics in rats after oral administration. The class given is in vivo. Conditions: oral dosing at 1.1-3.7 mg/kg body weight (DA-DKP) and 1.5-4.8 mg/kg body weight (EA-DKP), calculated from curve fit. As to the method: ; both were calculated from a curve fit equation for the data obtained).
Data set [3] can be described thus: Absorption from isolated perfused rat intestine. The class given is in vitro ADME. To be noted: after 2 hours perfusion; approximately 1 mg DA-DKP or 1.4 mg EA-DKP injected into lumen of the duodenum. As to the method: The rat intestine from the pyloric sphincter to the rectum was marginally isolated and perfused via the mesenteric artery with an erythrocyte based perfusate containing bovine serum albumin. The effluent perfusate from the gut was collected by cannulation of the portal vein and re-circulated (after re-oxygenation). After an equilibration period, a solution (approximately 1 ml) containing approximately 1 mg of Asp-Ala diketopiperazine (DA-DKP) or 1.4 mg of Glu-Ala diketopiperazine (EA-DKP) was administered by injection into the lumen of the duodenum.
After dosing, serial samples of the perfusate were collected at timed intervals up to 2 hours past dosing. Those samples were centrifuged and the plasmas assayed for both cyclic dipeptides by tandem liquid chromatography mass spectrometry (LC-MS).

Data set [4] is classed as in vitro ADME. Conditions: isolated perfused rat liver (data not shown).

Several values for one entry are separate records, joined by “and”; a condition that tells them apart may be missing. Identical values can stand only once.

Turning to Asp-Ala diketopiperazine [DA-DKP], the “crossing of the blood-brain barrier” value in data set [1] is “cross the blood-brain barrier”. In the data set with TriPS cells, the “lysis of TriPS cells (FIG. 2)” value was “No lysis”. In data set [2], the Cmax was 4000 to 6000 ng/mL. In addition, in data set [3], the “amount absorbed from the gut lumen into the circulation, of the dose administered” value is 95%. In addition, the “first pass hepatic clearance” value in data set [4] was “lack of first pass hepatic clearance”.

As to Glu-Ala diketopiperazine [EA-DKP], the Cmax in data set [2] was 600 to 1100 ng/mL. Besides, the “amount absorbed from the gut lumen into the circulation, of the dose administered” value in data set [3] was 100% and 112%.

The Cmax is the maximum level reached in the sampled fluid or tissue.
